Permeability data for macrocyclic peptides

PAMPA measures passive passage through an artificial lipid membrane.
Values are log10 P with P in cm/s, so -5 is more permeable than -7.

{"smiles": "CCCC[C@@H]1NC(=O)[C@H](CC(C)C)N(C)C(=O)CN(CCCN2CCCC2=O)C(=O)[C@H](Cc2ccccc2)NC(=O)CN(CCN2CCOCC2)C(=O)[C@H]2CCCN2C1=O", "PAMPA (log10 cm/s)": "-7.35"}
{"smiles": "CCCC[C@@H]1NC(=O)[C@H](CC(C)C)N(C)C(=O)CN(CCOC)C(=O)[C@H](Cc2ccc3ccccc3c2)NC(=O)CN(CC(C)C)C(=O)[C@H]2CCCN2C1=O", "PAMPA (log10 cm/s)": "-5.65"}
{"smiles": "CCCC[C@@H]1NC(=O)[C@H](CC(C)C)N(C)C(=O)CN(CC2CCOCC2)C(=O)[C@H](Cc2ccccc2)NC(=O)CN(CCC)C(=O)[C@H]2CCCN2C1=O", "PAMPA (log10 cm/s)": "-5.19"}
{"smiles": "CCCC[C@@H]1NC(=O)[C@H](CC(C)C)N(C)C(=O)CN(CCCc2ccccc2)C(=O)[C@H](Cc2ccc3ccccc3c2)NC(=O)CN(Cc2ccc3c(c2)OCO3)C(=O)[C@H]2CCCN2C1=O", "PAMPA (log10 cm/s)": "-9.29"}
{"smiles": "CCCC[C@@H]1NC(=O)[C@H](CC(C)C)N(C)C(=O)CN(CCCc2cnn(C)c2)C(=O)[C@H](Cc2ccccc2)NC(=O)CN(CCN2CCOCC2)C(=O)[C@H]2CCCN2C1=O", "PAMPA (log10 cm/s)": "-6.63"}
{"smiles": "CCCC[C@@H]1NC(=O)[C@H](CC(C)C)N(C)C(=O)CN(CCCN2CCCC2=O)C(=O)[C@H](CC(C)C)NC(=O)CN(CC(C)C)C(=O)[C@H]2CCCN2C1=O", "PAMPA (log10 cm/s)": "-6.27"}
{"smiles": "CCCC[C@@H]1NC(=O)[C@H](CC(C)C)N(C)C(=O)CN(CC2CCOCC2)C(=O)[C@H](Cc2ccc3ccccc3c2)NC(=O)CN(CCCCc2ccccc2)C(=O)[C@H]2CCCN2C1=O", "PAMPA (log10 cm/s)": "-7.61"}
{"smiles": "CCCC[C@@H]1NC(=O)[C@H](CC(C)C)N(C)C(=O)CN(CCOc2ccccc2)C(=O)[C@H](Cc2ccc3ccccc3c2)NC(=O)CN(CCN2CCOCC2)C(=O)[C@H]2CCCN2C1=O", "PAMPA (log10 cm/s)": "-6.50"}
{"smiles": "CCCC[C@@H]1NC(=O)[C@H](CC(C)C)N(C)C(=O)CN(CCc2cccnc2)C(=O)[C@H](C)NC(=O)CN(CCC)C(=O)[C@H]2CCCN2C1=O", "PAMPA (log10 cm/s)": "-6.94"}
{"smiles": "CCCC[C@@H]1NC(=O)[C@H](CC(C)C)N(C)C(=O)CN(CCOC)C(=O)[C@H](CC(C)C)NC(=O)CN(CCCCc2ccccc2)C(=O)[C@H]2CCCN2C1=O", "PAMPA (log10 cm/s)": "-5.75"}
{"smiles": "CCCC[C@@H]1NC(=O)[C@H](CC(C)C)N(C)C(=O)CN(CCCc2ccccc2)C(=O)[C@H](C)NC(=O)CN(CCC)C(=O)[C@H]2CCCN2C1=O", "PAMPA (log10 cm/s)": "-4.96"}
{"smiles": "CCCC[C@@H]1NC(=O)[C@H](CC(C)C)N(C)C(=O)CN(CCCc2ccccc2)C(=O)[C@H](Cc2ccc3ccccc3c2)NC(=O)CN(CCC)C(=O)[C@H]2CCCN2C1=O", "PAMPA (log10 cm/s)": "-7.44"}
{"smiles": "CCCC[C@@H]1NC(=O)[C@H](CC(C)C)N(C)C(=O)CN(CCc2cccnc2)C(=O)[C@H](C)NC(=O)CN(CC)C(=O)[C@H]2CCCN2C1=O", "PAMPA (log10 cm/s)": "-7.40"}
{"smiles": "CCCCCN1CC(=O)N(C)[C@@H](CC(C)C)C(=O)N[C@@H](CCCC)C(=O)N2CCC[C@@H]2C(=O)N(CC)CC(=O)N[C@@H](CC(C)C)C1=O", "PAMPA (log10 cm/s)": "-4.94"}
{"smiles": "CCCC[C@@H]1NC(=O)[C@H](CC(C)C)N(C)C(=O)CN(CCOC)C(=O)[C@H](CC(C)C)NC(=O)CN(Cc2cc(CC(C)C)on2)C(=O)[C@H]2CCCN2C1=O", "PAMPA (log10 cm/s)": "-5.11"}
{"smiles": "CCCC[C@@H]1NC(=O)[C@H](CC(C)C)N(C)C(=O)CN(CC2CCCCC2)C(=O)[C@H](C)NC(=O)CN(Cc2ccccc2Cn2cccn2)C(=O)[C@H]2CCCN2C1=O", "PAMPA (log10 cm/s)": "-4.98"}
{"smiles": "CCCC[C@@H]1NC(=O)[C@H](CC(C)C)N(C)C(=O)CN(CCCc2ccccc2)C(=O)[C@H](Cc2ccccc2)NC(=O)CN(CCN2CCOCC2)C(=O)[C@H]2CCCN2C1=O", "PAMPA (log10 cm/s)": "-5.49"}
{"smiles": "CCCC[C@@H]1NC(=O)[C@H](CC(C)C)N(C)C(=O)CN(CCCN2CCCC2=O)C(=O)[C@H](Cc2ccc3ccccc3c2)NC(=O)CN(Cc2ccc(Cl)cc2)C(=O)[C@H]2CCCN2C1=O", "PAMPA (log10 cm/s)": "-7.11"}
{"smiles": "CCCC[C@@H]1NC(=O)[C@H](CC(C)C)N(C)C(=O)CN(Cc2ccccc2)C(=O)[C@H](Cc2ccc3ccccc3c2)NC(=O)CN(Cc2cc(CC(C)C)on2)C(=O)[C@H]2CCCN2C1=O", "PAMPA (log10 cm/s)": "-7.88"}
{"smiles": "CCCC[C@@H]1NC(=O)[C@H](CC(C)C)N(C)C(=O)CN(CCOC)C(=O)[C@H](Cc2ccc3ccccc3c2)NC(=O)CN(Cc2cc(CC(C)C)on2)C(=O)[C@H]2CCCN2C1=O", "PAMPA (log10 cm/s)": "-6.90"}

Again, the 3 entries with the lowest PAMPA:

{"smiles": "CCCC[C@@H]1NC(=O)[C@H](CC(C)C)N(C)C(=O)CN(CCCc2ccccc2)C(=O)[C@H](Cc2ccc3ccccc3c2)NC(=O)CN(Cc2ccc3c(c2)OCO3)C(=O)[C@H]2CCCN2C1=O", "PAMPA (log10 cm/s)": "-9.29"}
{"smiles": "CCCC[C@@H]1NC(=O)[C@H](CC(C)C)N(C)C(=O)CN(Cc2ccccc2)C(=O)[C@H](Cc2ccc3ccccc3c2)NC(=O)CN(Cc2cc(CC(C)C)on2)C(=O)[C@H]2CCCN2C1=O", "PAMPA (log10 cm/s)": "-7.88"}
{"smiles": "CCCC[C@@H]1NC(=O)[C@H](CC(C)C)N(C)C(=O)CN(CC2CCOCC2)C(=O)[C@H](Cc2ccc3ccccc3c2)NC(=O)CN(CCCCc2ccccc2)C(=O)[C@H]2CCCN2C1=O", "PAMPA (log10 cm/s)": "-7.61"}

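The data file gives no further conditions (lipid, pH, time, direction or concentration), and values from different papers need not be comparable. The list need not hold all peptides of the study. Peptides that the database sets to -10, its floor, are left out.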

Values of Furukawa et al. 2016, doi:10.1021/acs.jmedchem.6b01246, as listed in CycPeptMPDB.